Values quoted from earlier work as cited in US11279682B2 (H. Lundbeck A/S, priority 2015, dated 2022).

Details: known salts, values from the cited reference; cited from earlier work

## Meso-tartrate
  Solubility: 700 µg/mL
